Measurements reported in patent EP0956864A1, “TISSUE FIBROSIS INHIBITOR” (KYOWA HAKKO KOGYO CO., LTD., priority 1996, dated 1998).

Experiment: Arginase activity in blood (plasma) after administration to rats, half life
Format: in vivo, SD rats
Conditions: rat; 0.5 ml of 200 µg/ml per rat into penis veniplex; from plasma arginase activity
Protocol: 2. Kinetics of PEG modified rat arginase in rat blood
The change with the passage of time in arginase activity and arginine concentration in the blood of rats to which the PEG modified rat arginase was administered was investigated.
Male SD rats (body weight of 220 to 240 G) were purchased from Nippon SLC and tested after about 1 week breeding. Samples to be given were the rat arginase obtained in 3 of Example 2, the PEG modified rat arginase obtained in 1 of Example 4, and PBS containing 0.1 mM manganese chloride as a negative control. The rat arginase and PEG modified rat arginase were adjusted to a protein concentration of 200 µg/ml with PBS containing 0.1 mM manganese chloride. After inhalation anesthesia with diethyl ether, each sample was administered to penis veniplex at a dose of 0.5 ml per rat by means of a disposable plastic syringe (Terumo). […]
The arginase activity in the rat plasma obtained in 2 (2) of Example 4 was assayed according to the method of Baston et al. (Anal. Biochem., 191, 384 (1990)): ornithine produced by hydrolysis of the substrate arginine with arginase was quantitatively determined by amino acid analysis and the activity of arginase that produces 1 µmol of ornithine per minute at 37°C was defined as 1 U. The produced ornithine was quantitatively determined by the amino acid analysis as described in 2 (3) of Example 4.

B1: PEG modified rat arginase: recombinant rat arginase modified with methoxy polyethylene glycol propionic acid N-hydroxysuccinimide ester, average molecular weight about 5,000 (conjugate, UniProt P07824 1-323, looked up)
Arginase-1: MSSKPKPIEIIGAPFSKGQPRGGVEKGPAALRKAGLVEKLKETEYNVRDHGDLAFVDVPNDSPFQIVKNPRSVGKANEQLAAVVAETQKNGTISVVLGGDHSMAIGSISGHARVHPDLCVIWVDAHTDINTPLTTSSGNLHGQPVAFLLKELKGKFPDVPGFSWVTPCISAKDIVYIGLRDVDPGEHYIIKTLGIKYFSMTEVDKLGIGKVMEETFSYLLGRKKRPIHLSFDVDGLDPVFTPATGTPVVGGLSYREGLYITEEIYKTGLLSGLDIMEVNPTLGKTPEEVTRTVNTAVALTLSCFGTKREGNHKPETDYLKPPK
modifications: methoxy PEG 5000 conjugated
- half life in blood: 45 h
